Measurements reported in PubChem BioAssay (NCI).
Some of these compounds have results that are not shown, active ones among them.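 The compound was tested at five concentrations on cells cultured in 96-well plates, with a 48-hour exposure period. GI50 marks 50% less growth.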

Key:
BT-549 breast = test: NCI-60 cell line screen, 48 h
NCI/ADR-RES ovarian = test: NCI-60 cell line screen, 48 h

CC#CC(O)(C(=O)OCC1=CCCN(C)C1)c1ccccc1 (configuration not stated)
GI50 (BT-549 breast): 4.41 µM
GI50 (NCI/ADR-RES ovarian): 23.8 µM
